Reference: paper PMC5541792, “Simultaneous Determination of 11 Compounds in Gualou Guizhi Granule and Pharmacokinetics Study by UPLC-MS/MS” (Journal of Analytical Methods in Chemistry, 2017)

Assay: Stability of analytes in rat plasma samples (method validation)
Format: in vitro ADME
Conditions: 4°C for 24 h, high QC nominal concentration, n = 6
Method: Stability of the analytes from plasma samples was performed by determining three different concentrations (low, middle, and high samples) in six replicates under different conditions. It included short-term stability which was assessed by keeping samples at room temperature (25°C) for 24 h, stability which was measured using samples stored at 4°C for 24 h, and freeze-thaw stability that was determined after three freeze-thaw cycles at −80°C.

SMILES: CC1(C)[C@@H](O[C@H]2O[C@H](C(=O)O)[C@@H](O)[C@H](O)[C@H]2O[C@@H]2O[C@H](C(=O)O)[C@@H](O)[C@H](O)[C@H]2O)CC[C@]2(C)[C@H]3C(=O)C=C4[C@@H]5C[C@@](C)(C(=O)O)CC[C@]5(C)CC[C@@]4(C)[C@]3(C)CC[C@@H]12 [Glycyrrhizic acid, glycyrrhizic acid]
- Autosampler stability (24 h) Mean: 107.48%
